# PubChem BioAssay AID588391 (Broad Institute, 2011)
# Sequences of proteins named here, by UniProt entry; tags and fusion partners are left off. A change or cut given only in a name is not applied to a line headed by its entry.
# UniProt P07237: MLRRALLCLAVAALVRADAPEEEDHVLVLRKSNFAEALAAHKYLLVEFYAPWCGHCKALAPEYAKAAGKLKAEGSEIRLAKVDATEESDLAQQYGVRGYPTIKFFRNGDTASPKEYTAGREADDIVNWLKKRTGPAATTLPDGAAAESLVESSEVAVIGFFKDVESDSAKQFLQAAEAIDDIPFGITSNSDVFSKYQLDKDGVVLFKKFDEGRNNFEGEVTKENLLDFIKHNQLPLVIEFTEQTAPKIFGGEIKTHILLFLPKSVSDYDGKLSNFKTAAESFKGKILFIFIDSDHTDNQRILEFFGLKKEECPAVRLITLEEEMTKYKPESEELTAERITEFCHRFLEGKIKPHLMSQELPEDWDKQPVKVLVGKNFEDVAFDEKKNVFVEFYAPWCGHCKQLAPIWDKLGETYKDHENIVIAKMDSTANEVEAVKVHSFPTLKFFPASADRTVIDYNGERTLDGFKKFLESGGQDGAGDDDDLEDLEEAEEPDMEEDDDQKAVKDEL
# Only a part is listed here, and it is no random draw. Active and inactive are the calls of the source.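 How the source made its calls: active means mean inhibition across replicates of 30% or more, whatever share of single replicates reach that level; inconclusive means mean inhibition below 30% while every single replicate reaches 30%; inactive means the rest.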
# Molecular target: Protein disulfide-isomerase (Homo sapiens) (UniProt P07237)
# Assay: blockers of PDI-driven insulin aggregation – biochemical, turbidity, single point, plate reader, primary screen (AID 588391);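 further: absorbance from insulin aggregation driven by PDI reduction with DTT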
# Conditions: A650, 90 min, at 10 µM, active compounds read high
row,SMILES,inhibition
1,O=P1(Nc2nc3ccc(Cl)cc3s2)COc2ccccc2O1 (stereo unspecified),inactive: -2.77%
2,CCOc1ccc(C2=NCC(CBr)S2)cc1 (stereo unspecified),inactive: -2.3%
3,CC(C)(C)C(=O)NC(Sc1ccccc1)C(Cl)(Cl)Cl (stereo unspecified),inactive: 0.519%
4,CCc1cc(O)c([N+](=O)[O-])c(C)c1[N+](=O)[O-],inactive: -6.04%
5,Cc1ccccc1CN(C)C(=O)COC(=O)C(O)(c1ccccc1)c1ccccc1,inactive: -6.45%
6,C[C@@H]1C=CCP(=O)(Oc2ccccc2)O1 (stereo partly specified),inactive: -2.89%
7,C[C@H]1OP(=O)(Oc2ccccc2)C[C@@H]2O[C@@H]21 (stereo partly specified),inactive: -2.46%
8,N#C/C(=C\c1ccc(N(CCBr)CCBr)cc1)C(N)=O,inactive: 5.82%
9,CC(=O)c1ccc(N2CC2c2ccncc2)cc1 (stereo unspecified),inactive: -6.83%
10,COC(=O)C1(C)COP(=O)(NCc2ccccc2)OC1 (stereo unspecified),inactive: -0.408%
11,CC(=O)Nc1ccc([As](=O)(O)O)c(O)c1,inactive: 10.1%
12,CC(=O)Nc1ccc(Oc2c([N+](=O)[O-])cc([N+](=O)[O-])cc2[N+](=O)[O-])cc1,inactive: 6.93%
13,c1ccc(-c2nn[nH]n2)c(-c2nn[nH]n2)c1,inactive: 5.07%
14,Cc1ccc(NP(=O)(Oc2cccc(C)c2)Oc2cccc(C)c2)nc1,inactive: 10.7%
15,O=C(NC1CCS(=O)(=O)C1)NP(=S)(Oc1ccccc1)Oc1ccccc1 (stereo unspecified),inactive: 3.21%
16,CCNC(=S)/N=C(\N)N[N+](=O)[O-],inactive: -0.221%
17,O=P1(N(CCCl)CCCl)OCCC2CCCCN21 (stereo unspecified),inactive: -2.36%
18,O=C(OC1CN2CCC1CC2)c1ccccc1 (stereo unspecified),inactive: -3.5%
19,CCC(=O)N1C2C3N(C(=O)CC)C1C1N(C(=O)CC)C(C(N1C(=O)CC)N3C(=O)CC)N2C(=O)CC,inactive: 0.891%
20,COC(=O)c1cc2c(s1)N=C(c1ccccc1)N(C)P2(=O)N1CCOCC1 (stereo unspecified),inactive: 0.049%
21,CC(=O)NC(SC(=S)N(CC(C)C)CC(C)C)C(Cl)(Cl)Cl (stereo unspecified),inactive: -3.61%
22,Cc1ccc(OP(=O)(Nc2ccccn2)Oc2ccc(C)cc2)cc1,inactive: -1.94%
23,Cc1ccccc1OP(=O)(Nc1ccccn1)Oc1ccccc1C,inactive: -6.26%
24,CC(NC(=O)COC(=O)C(O)(c1ccccc1)c1ccccc1)c1ccccc1 (stereo unspecified),inactive: -0.209%
25,CN(C)C(=O)Oc1noc2ccccc12,inactive: 4.03%
26,O=c1c2cc([N+](=O)[O-])ccc2[nH]c2c([N+](=O)[O-])cc([N+](=O)[O-])cc12,inactive: 17.5%

row,SMILES,inhibition
1,CN(C)C1(CNC(=O)c2ccc(Cl)c(S(N)(=O)=O)c2)CCCCC1,inactive: 1.46%
2,O=P(Nc1ccccn1)(c1ccc(Br)cc1)c1ccc(Br)cc1,inactive: -6.03%
3,COc1ccc(N)c([N+](=O)[O-])c1[N+](=O)[O-],inactive: -4.24%
4,O=P(Nc1nc2ccccc2s1)(c1ccccc1)c1ccccc1,inactive: -0.197%
5,C[C@H]1OP(=O)(Oc2ccccc2)[C@H](O)[C@H](O)[C@H]1N=[N+]=[N-] (stereo partly specified),inactive: -0.386%
6,O=[As](O)(c1ccccc1)c1ccc(O)cc1,inactive: 2.48%
7,CC(=O)NC(SC(=S)N(C)C)C(Cl)(Cl)Cl (stereo unspecified),inactive: 0.0515%
8,O=[N+]([O-])c1ncn(CCn2cnc([N+](=O)[O-])n2)n1,inactive: -8.8%
9,O=[N+]([O-])c1ccc(O)c(/C=N/Nc2ccc([N+](=O)[O-])cc2[N+](=O)[O-])c1,inactive: -5.98%
10,O=C(OC1CN2CCC1CC2)c1cccc(Cl)c1 (stereo unspecified),inactive: 10.6%
11,Nc1ccc([As](=O)(O)c2ccc([N+](=O)[O-])cc2)cc1,inactive: 0.923%
12,C(Cc1nn[nH]n1)Cc1nn[nH]n1,inactive: 15.7%
13,O=P(Nc1nccs1)(c1ccccc1)c1ccccc1,inactive: 2.26%
14,CC(C)C(=O)NC(Sc1ccccc1)C(Cl)(Cl)Cl (stereo unspecified),inactive: 1.69%
15,c1nnnn1CCn1cnnn1,inactive: -0.601%
16,COc1ccc(C2=NCC(CBr)S2)cc1 (stereo unspecified),inactive: 14.3%
17,Cc1ccc(NP(=O)(Oc2ccccc2)Oc2ccccc2)nc1,inactive: 9.42%
18,O=[N+]([O-])c1cc([N+](=O)[O-])c(CCNc2ccccc2)c([N+](=O)[O-])c1,inactive: -2.09%
19,CCc1nc2c(n1)c1c(non1O)c1c2no[n+]1[O-],inactive: 2.56%
20,CC(=O)N1C2C3N(C(C)=O)C1C1N(C(C)=O)C(C(N1C(C)=O)N3C(C)=O)N2C(C)=O,inactive: -0.467%
21,O=[N+]([O-])c1cccc2n[nH]nc12,inactive: 3.56%
22,CCN(/C(=N/P(=O)(N1CCOCC1)N1CCOCC1)N1CCOCC1)c1ccc(OC)cc1,inactive: -0.431%
23,Nc1ccc([As](=O)(O)c2ccc(N)cc2)cc1,inactive: 20.6%
24,C[N+]1=C2C=CC=CC=C2SC12C([N+](=O)[O-])=CC([N+](=O)[O-])=C[C-]2[N+](=O)[O-] (stereo unspecified),inactive: -5.45%
25,c1cc(-c2nn[nH]n2)ccc1-c1nn[nH]n1,inactive: 1.39%
26,CC1CCN(C(=O)Oc2c(Cl)cc(Cl)c3cccnc23)CC1,inactive: 4.17%

row,SMILES,inhibition
1,CC(C)=N/N=C(\N)N[N+](=O)[O-],inactive: 4%
2,CC(C)c1nc(Nc2ccccc2)n(P(=O)(N(C)C)N(C)C)n1,inactive: -3.48%
3,CN(C)C(=O)OCCc1n(C)cc[n+]1C,inactive: 20.2%
4,O=P1(N(CCCl)CCCl)OCCCS1 (stereo unspecified),inactive: 11.4%
5,O=C(Nc1cc([As](=O)(O)O)ccc1O)c1ccccc1,inactive: 11.4%
6,O=[N+]([O-])c1ncn(CCn2ncnc2[N+](=O)[O-])n1,inactive: -0.917%
7,CC(C)(C)C(=O)NC(Sc1ccncn1)C(Cl)(Cl)Cl (stereo unspecified),inactive: 0.038%
8,O=C(O)CNc1ccc([As](=O)(O)O)cc1,inactive: -4.55%
9,O=[N+]([O-])c1cccc(NC2=NCC(CBr)S2)c1 (stereo unspecified),inactive: 4.84%
10,COC(=O)C1(C)COP(=O)(Nc2ccccc2)OC1 (stereo unspecified),inactive: 2.26%
11,CN(C)P(=O)(N(C)C)n1c(Nc2ccccc2)nnc1-c1ccccc1,inactive: -0.503%
12,O=P(Nc1nc2ccc(Cl)cc2s1)(c1ccccc1)c1ccccc1,inactive: -8.59%
13,O=C(O)c1ccccc1[As](=O)(O)O,inactive: 16.2%
14,CC(=O)Nc1ccc([As](=O)(O)O)cc1,inactive: -2.62%
15,CCCC1OP(N)(=O)OCC1CC (stereo unspecified),inactive: 12%
16,CCOP(=O)(Nc1ccccc1)OCC,inactive: 5.43%
17,Cc1cc(SC(NC(=O)c2ccc(F)cc2)C(Cl)(Cl)Cl)ncn1 (stereo unspecified),inactive: -8.86%
18,CN(C(=O)Cc1ccc(Cl)c(Cl)c1)[C@H]1CCCC[C@@H]1N1CCCC1,inactive: 0.792%
19,Cc1ccc(NP(=O)(Oc2ccccc2F)Oc2ccccc2F)nc1,inactive: -1.96%
20,Nc1cccc2ccc([As](=O)(O)O)cc12,inactive: 2.74%
21,CCN(N=Nc1nonc1N)c1nonc1N,inactive: -11.8%
22,CN(C(=O)Cc1ccc(Cl)c(Cl)c1)[C@H]1CCCC[C@H]1N1CCCC1,inactive: -1.84%
23,Cc1ccc(N/C(=N/P(=O)(N2CCOCC2)N2CCOCC2)N2CCOCC2)cc1,inactive: -1.22%
24,NC(=O)c1cc([N+](=O)[O-])cc([N+](=O)[O-])c1N,inactive: 5.46%
25,Clc1ccc(Cl)c(NC2=NCC(CBr)S2)c1 (stereo unspecified),inactive: 5.28%
26,CN1CCCC(OC(=O)C(c2ccccc2)c2ccccc2)C1 (stereo unspecified),inactive: 2.08%

row,SMILES,inhibition
1,COc1ccccc1OP(=O)(Nc1ccc(C)cn1)Oc1ccccc1OC,inactive: 5.9%
2,Cc1ccc(OP(=O)(Nc2nccs2)Oc2ccc(C)cc2)cc1,inactive: -2.9%
3,Oc1ccccc1CNc1ccccn1,inactive: -1.27%
4,O=C(NC(Sc1ccncn1)C(Cl)(Cl)Cl)c1ccccc1 (stereo unspecified),inactive: 5.62%
5,CC(C)CC(=O)NC(Sc1ccc(Cl)cc1)C(Cl)(Cl)Cl (stereo unspecified),inactive: 6%
6,Nc1cc(N)c2nonc2c1[N+](=O)[O-],inactive: 3.67%
7,Cc1c2c(nc3ccccc13)SC(C(Cl)Cl)C2 (stereo unspecified),inactive: 9.61%
8,O=C(OC1CN2CCC1CC2)C12CC3CC(CC(C3)C1)C2 (stereo unspecified),inactive: 4.42%
9,Cc1cc(=O)[nH]c(N[N+](=O)[O-])n1,inactive: -24.6%
10,O=P1(N(CCCl)CCCl)Nc2ccccc2N1,inactive: 13.4%
11,O=P1(N(CCCl)CCCl)OCCCN1CCCl (stereo unspecified),inactive: -4.37%
12,COc1ccc2nc(NP(=O)(c3ccccc3)c3ccccc3)sc2c1,inactive: 2.44%
13,COc1cc(I)ccc1[As](=O)(O)O,inactive: 4.43%
14,O=[N+]([O-])c1cc(Oc2ccc([N+](=O)[O-])cc2C(F)(F)F)cc([N+](=O)[O-])c1,inactive: -9.16%
15,COc1ccc(N/C(=N/P(=O)(N2CCOCC2)N2CCOCC2)N2CCOCC2)cc1,inactive: -2.32%
16,O=[As](O)(c1ccc(O)cc1)c1ccccc1O,inactive: 10.3%
17,C[As](=O)(O)c1cccc(C(=O)O)c1,inactive: 8.37%
18,COc1cc(C(=O)NCC2(N3CCOCC3)CCCCC2)ccc1OCC(C)C,inactive: -16.3%
19,O=[N+]([O-])c1ccc(-c2cc([N+](=O)[O-])c(O)c([N+](=O)[O-])c2)cc1,inactive: -5.5%
20,Cc1ccc(OP(=O)(Nc2ccc([N+](=O)[O-])cn2)Oc2ccc(C)cc2)cc1,inactive: -3.59%
21,Cc1ccc2nc3c(c(C)c2c1)CC(C(Cl)Cl)S3 (stereo unspecified),inactive: 1.85%
22,ClCCSc1nnc(-c2cccnc2)o1,inactive: 3.13%
23,CC(C)c1ccc(OP(=O)(Nc2ccccn2)Oc2ccccc2F)cc1 (stereo unspecified),inactive: 13.2%
